Screening results: PubChem, ICCB-Longwood Screening Facility, Harvard Medical School
Many of the other results were omitted from the sample, so hits are more common in it than they were.
GIV-Gai inh: inhibitors of GIV GBA-motif binding to rat Galpha-i3; P08753; Galpha-i3/FITC-GIV peptide fluorescence polarization, 90 min; hits give low values; scaled: aluminum fluoride 0%, vehicle 100%; percent of control (FP), % (test concentration not listed); 0.42% of 210,000 active; AID 1224905;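 active = replicate mean at 85% of control or lower, very high polarization wells dropped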;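 also: wells of about 15 µL received 100 nL stock; the first replicate is given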
GIV-Gai FP conf: GIV-Galpha-i3 inhibition, FP confirmation | FITC-GIV peptide binding to Galphai3, fluorescence polarization; stronger effect = lower value | fluorescence polarization, mP at 100 µM | AID 1259350 | 580 tested, 38% active | shares compounds with GIV-Gai inh;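 active means inhibition score of 15 or more, meaning 100 minus mean polarization as percent of control over three replicates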
GIV-Gai AS conf: GIV-Galpha-i3 inhibition, AlphaScreen confirmation. 580 tested, 39% active. AlphaScreen counts at 100 µM. shares compounds with GIV-Gai inh. AlphaScreen Galphai3-GIV binding, purified proteins, 90 min; stronger effect = lower value;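 active means inhibition score at or above a set limit, where the score is 100 minus the three-replicate mean percent of control signal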
Large screens that a line does not name were inactive (follow-up assays come after a bar, where they were run).

CCOc1cccc(=O)c2c(C)oc(C)c12	none
CCOCCOc1cccc2oc(C(=O)OCC)cc(=O)c12	none
CCOc1cccc(=[O+]CC)c2c(C)oc(C)c12	GIV-Gai inh 68.1 | GIV-Gai FP conf 44.2 | GIV-Gai AS conf 2733
O=C1CCCC(O)=C1C=Nc1ccccc1	none
O=C1CCCC(O)=C1C=Nc1ccc(N=CC2=C(O)CCCC2=O)cc1	none
O=C1CCCC(O)=C1C=NCCCn1ccnc1	none | GIV-Gai FP conf inactive | GIV-Gai AS conf 3828
CCN(CC)c1ccc(CN2CCCC(CO)C2)cc1 (stereo not given)	none
COc1ccc(-c2cc(=Nc3ccc(C)cc3C)c3cc(O)ccc3o2)cc1	GIV-Gai inh 74.6 | GIV-Gai FP conf inactive | GIV-Gai AS conf inactive
CCCN=c1cc(-c2ccccc2)oc2ccc(C)cc12	none
COc1ccc(-c2cc(=O)c3cc(F)ccc3o2)cc1	none
CN(C)c1ncnc2c1cnn2C	none
O=C(CN1C2=NCCCN2c2ccccc21)c1ccc(Cl)c(Cl)c1	none
O=C(CN1C2=NCCCN2c2ccccc21)c1ccc(F)cc1	none
O=C(CN1C2=NCCCN2c2ccccc21)c1ccc(Cl)cc1	none | GIV-Gai FP conf inactive | GIV-Gai AS conf inactive
Cc1ccc(-n2nc(C)c3c(=O)n(CC(=O)NCCC4=CCCCC4)ccc32)cc1	none
Cc1c(NC(=O)c2ccc(Cl)cc2)c(-n2cnnc2)nn1C	none
Cc1ccnc(NC(=O)C2CCCN(S(=O)(=O)c3c(C)nn(CC(=O)N4CCc5ccccc54)c3C)C2)c1 (stereo not given)	none
Cc1cc(N2CCOCC2)nc(=S)[nH]1	none
Cc1ccc(C(C)C)cc1Oc1ccc(Cl)cc1NC(=O)c1cc(Cl)cc(Br)c1O	none
O=C(O)c1ccc(C(=O)Nc2cccc(Cl)c2)c(C(=O)O)c1	GIV-Gai inh 64.2 | GIV-Gai FP conf 62.4 | GIV-Gai AS conf inactive
O=C(O)c1cccc(NC(=O)c2ccccc2C(=O)O)c1	none
O=C(Nc1cccc(Cl)c1)c1ccc(Cl)cc1	none
O=C(NCC1CCN(Cc2cccc(Cl)c2)CC1)c1ccc2cccc(O)c2n1	none
CC1=NN(c2ccccc2)C(=O)C1(O)C1C(=O)c2ccccc2C1=O (stereo not given)	GIV-Gai inh 73.6 | GIV-Gai FP conf 56.4 | GIV-Gai AS conf 4583
CC1=NN(c2ccccc2)C(=O)C1(C)N (stereo not given)	none
CC1=NN(c2ccccc2)C(=O)C12C1C=CC(C1)C2(C(F)(F)F)C(F)(F)F (stereo not given)	none
O=C(CN1CCN(C(=O)CSc2ccc(Cl)cc2)CC1)Nc1nnc(-c2ccccc2)s1	none
Cc1cc(OCc2nc(CC(=O)NCC(C)C)cs2)ccc1Cl	none | GIV-Gai FP conf inactive | GIV-Gai AS conf inactive
Cc1cc(OCc2nc(CC(=O)NC3CC3)cs2)ccc1Cl	none
Cc1cc(OCc2nc(C)c(C(=O)NCC(C)C)s2)ccc1Cl	none
CC(C)CCNC(=O)CCCCn1c(=O)c2ccccc2n(CC(=O)Nc2ccccc2Cl)c1=O	none
COc1ccc(CNS(=O)(=O)c2c(C)nn(-c3ccc(-c4ccc(C)cc4)nn3)c2C)cc1	none
COCCNC(=O)C1CCCN(c2cnnc3c(Cl)cccc23)C1 (stereo not given)	none
CC1CC(C)CN(c2cnnc3c(Cl)cccc23)C1 (stereo not given)	none
Clc1cccc2c(N3CCCCCC3)cnnc12	GIV-Gai inh 82.6 | GIV-Gai FP conf inactive | GIV-Gai AS conf inactive
CC(=O)C1=NN(c2cccc(Cl)c2C)C2(S1)SC(c1ccc(C)cc1)(c1ccc(C)cc1)c1ccccc12 (stereo not given)	none
CCOc1ccc(-c2nonc2NC(=O)C(C)Oc2ccc(Cl)c(C)c2)cc1C (stereo not given)	none
CCOc1ccc(-c2nonc2NC(=O)C(C)Oc2ccc(CC)cc2)cc1C (stereo not given)	none
CCOc1ccc(-c2nonc2NC(=O)C(C)Oc2ccc(F)cc2)cc1C (stereo not given)	GIV-Gai inh 84.2 | GIV-Gai FP conf inactive | GIV-Gai AS conf inactive
COc1cc(Br)cc(/C=C2\Sc3ccccc3C2=O)c1O	none
CC(=O)O/N=C1\Sc2ccccc2C1=O	GIV-Gai inh 67.7 | GIV-Gai FP conf inactive | GIV-Gai AS conf 29965
CC(=O)Oc1ccc([N+](=O)[O-])cc1/C=C1\Sc2ccccc2C1=O	none
Fc1cccc(CNC2=NCCNC23CCC(c2ccccc2)CC3)c1 (stereo not given)	none
N#Cc1c(NC(=O)COc2ccc(Cl)cc2)oc(-c2ccccc2)c1-c1ccccc1	none
CCn1cc(S(=O)(=O)NCCc2ccccc2)cn1	none
Cn1nc(C(=O)NCc2ccc3c(c2)OCO3)c2c1-c1cc(Cl)ccc1SC2	none
O=C(O)Cn1c2c(c3ccccc31)CSc1ccc(Cl)cc1-2	none | GIV-Gai FP conf inactive | GIV-Gai AS conf 18488
O=C(O)Cn1c2ccccc2c2ccccc21	none
O=C(/C=C/c1cccs1)Oc1ccc(Cl)cc1	none
Cc1ccc(Nc2cc(N(C)C)c3nonc3c2[N+](=O)[O-])c(C)c1	none
O=C1N/C(=N\c2ccccn2)SC1Cc1cc(Cl)ccc1Cl (stereo not given)	none
Oc1ccc2ccccc2c1C=NCc1cccnc1	GIV-Gai inh 5.4 | GIV-Gai FP conf 24.3 | GIV-Gai AS conf 5898
Oc1ccc2ccccc2c1C=NN1CCN(Cc2ccccc2)CC1	none
OCC(CO)(CO)N=Cc1c(O)ccc2ccccc12	none
CCCC1N=C2c3ccccc3N=C(SC(C)C(=O)Nc3ccc4c(c3)OCCO4)N2C1=O (stereo not given)	none
O=C(Nc1nc2ccccc2n1CCOc1ccccc1Cl)c1ccc(F)cc1	none
CCCNc1ccc(-c2nc(-c3ccco3)no2)cc1[N+](=O)[O-]	none
CC(C)Nc1ccc(-c2nc(-c3ccncc3)no2)cc1[N+](=O)[O-]	none
CC(C)Nc1ccc(-c2nc(-c3ccco3)no2)cc1[N+](=O)[O-]	none | GIV-Gai FP conf inactive | GIV-Gai AS conf inactive
O=C(O)c1cc(N2CCOCC2)ccc1NS(=O)(=O)c1ccc(Br)cc1	none
CC(C)NC(=O)c1ccc(Cl)c(-n2cnc3cccnc32)c1	none
Cc1noc(C)c1S(=O)(=O)N1CCCn2nc(-c3cccc(C(F)(F)F)c3)cc2C1	none
S=C(Nc1ccccc1)N1CCCCCC1	none
S=C(Nc1ccccc1)N1CCN(c2ccccc2)CC1	none
CC1(C)CC2(CCCN(C(=S)Nc3ccccc3)C2)CCO1 (stereo not given)	none | GIV-Gai FP conf inactive | GIV-Gai AS conf inactive
CCCCCC(=O)N1c2ccccc2NC2=C(C(=O)CC(c3ccco3)C2)C1c1ccc(OC)c(OC)c1 (stereo not given)	none
CCc1ccccc1N1C(=O)N(Cc2cc(=O)n3ccccc3n2)c2ccccc2S1(=O)=O	none | GIV-Gai FP conf inactive | GIV-Gai AS conf inactive
Cc1cccc(N2C(=O)N(Cc3cc(=O)n4ccccc4n3)c3ccccc3S2(=O)=O)c1	none
Cc1ccc(N2C(=O)N(Cc3cc(=O)n4ccccc4n3)c3ccccc3S2(=O)=O)cc1	none
N#C/C(=C\N1CCN(c2ccccc2)CC1)S(=O)(=O)c1ccc(F)cc1	none
CCCC1=C(C(=O)OCC)C(c2cc(OC)ccc2OC)n2c(s/c(=C\c3ccc([N+](=O)[O-])o3)c2=O)=N1 (stereo not given)	none
CNC(=O)N1CCc2cc(S(=O)(=O)Nc3ccc4c(c3)OCO4)ccc21	none
N#Cc1c(/N=C/c2ccc3c(c2)OCO3)oc(-c2ccccc2)c1-c1ccccc1	GIV-Gai inh 83.6 | GIV-Gai FP conf inactive | GIV-Gai AS conf inactive
